Assay results reported in ChEMBL document CHEMBL1153300, “Identification and SAR of novel diaminopyrimidines. Part 2: The discovery of RO-51, a potent and selective, dual P2X(3)/P2X(2/3) antagonist for the treatment of pain” (Bioorg Med Chem Lett, 2009).

Target: T1, P2X purinoceptor 3 (Rattus norvegicus, UniProt P49654)
T1 sequence (P49654 whole entry): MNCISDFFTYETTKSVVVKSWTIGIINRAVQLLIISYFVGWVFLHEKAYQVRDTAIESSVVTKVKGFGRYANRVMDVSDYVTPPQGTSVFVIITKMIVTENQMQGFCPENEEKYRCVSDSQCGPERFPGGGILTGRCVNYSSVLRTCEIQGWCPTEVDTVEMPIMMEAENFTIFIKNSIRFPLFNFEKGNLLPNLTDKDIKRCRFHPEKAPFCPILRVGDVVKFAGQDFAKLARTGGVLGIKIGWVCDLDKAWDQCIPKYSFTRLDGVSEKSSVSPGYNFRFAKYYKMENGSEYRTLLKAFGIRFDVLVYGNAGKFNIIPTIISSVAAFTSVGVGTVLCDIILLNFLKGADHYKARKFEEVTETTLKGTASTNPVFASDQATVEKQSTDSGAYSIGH
Experiment: Antagonist activity at rat P2X3 receptor expressed in CHO cells by FLIPR
Type: functional, cell-based

| Structure (SMILES) | IC50 [nM] | pIC50 (cho) |
| --- | --- | --- |
| COc1cc(C(C)C)c(Oc2cnc(NC(C)(C)CO)nc2N)cc1I | 100 | – |
| COc1cc(C(C)C)c(Oc2cnc(NCCO)nc2N)cc1I | – | 8 |
| COc1cc(C(C)C)c(Oc2cnc(NC(CO)CO)nc2N)cc1I | 2 | – |
